Bioassay records as filed in PubChem.
ClpP mod = qHTS Assay for Activators of ClpP | 340,000 compounds, 1.9% hits | ATP-dependent Clp protease proteolytic subunit (Bacillus subtilis (strain 168)), P80244 | purified B. subtilis ClpP, FRET peptide cleavage, 20 min | Potency, µM (series often up to 57.5 µM), for inactives: at the top dose activity change, negative = active; active = well fitted falling curve with a large enough effect; inconclusive = small, poorly fitted or top-dose-only effect; inactive = no such curve, though single readings can be large or run the other way; also: potency is read from the fitted curve at half-maximal effect; the source files actives as falling curves though it sought activators and does not explain the sign; nearly all actives have a fitted effect of over 65% in size
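ClpP 10 microg/mL final, pH 8 Tris/KCl buffer with BSA, glycerol, Tween-20; compound pinned in; FRET-FV substrate; RT 20 min; Ex320/Em430; ΔFRET vs ADEP 5.8 microM, DMSO, no enzyme.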
p53 reactivator = mutant p53 re-activation in reporter cells; H1299 p53-A138V BP100-luciferase reporter, luminescence, 24 h; Potency, µM (highest dose often 92.2 µM), without a hit: at the top dose activity change, positive = activation, most hits filed as activators; 320,000 compounds, 0.063% hits; AID 504706; also: potency is read from the fitted curve at half-maximal effect; % of control where 0% means no effect; nearly all actives have a fitted effect of over 45% in size
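H1299 (p53-null), stable ts p53-A138V + BP100-Luc; 1000 cells/well, Opti-MEM/10% FBS; cpd 4 pt, 1:5; 24 h, 37 deg C, 5% CO2; detection reagent 10 min RT; luminescence.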
Nrf2 block = inhibitors of Nrf2 signaling; A549 ARE-Fluc reporter, luciferase luminescence, 18-24 h; AID 504444; Potency, µM (series often up to 46 µM), for the others: top-dose activity change, negative = inhibition, most hits filed as inhibitors; 360,000 compounds, 2.1% hits; also: potency is read from the fitted curve at half-maximal effect; % is scaled to controls: 0 for no effect and ±100 for the full control effect; nearly all actives have a fitted effect of over 60% in size
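A549 ARE_Fluc cells (5000/well, 5% FBS OPTI-MEM) pre-incubated 2 h, then treated with compounds 18-24 h at 37C/5% CO2 in concentration-response. CellTiter-Fluor viability read first; BugLite luciferase luminescence after 15 min at room temperature gives Nrf2 activity.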
A549 tox = A549 cytotoxicity, counter-screen for Nrf2 inhibitors | 390,000 compounds, 0.16% hits | A549 ARE-Fluc cells, CellTiter-Fluor viability, 18-24 h | Potency, µM (titrated, usually from 46 µM), without a hit: at the top dose activity change, negative = cytotoxicity, most hits filed as inhibitors; also: potency is read from the fitted curve at half-maximal effect; % is scaled to controls: 0 for no effect and ±100 for the full control effect
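A549 ARE_Fluc cells in 5% FBS OPTI-MEM were exposed to compounds in concentration-response for 18-24 h at 37 deg C. Viability was read by CellTiter-Fluor fluorescence (Ex 405/Em 525) after 30 min, before the luciferase read.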
miR-21 reporter = miR-21 reporter, rising signal | HeLa miR-21 FLuc reporter, luciferase, 48 h | Potency, µM (top dose mostly 38.3 µM), inactives show at the top dose reporter change, positive = more light | 340,000 tested, under 10 active | AID 2288; active = well fitted rising curve with a large enough effect; inconclusive = small, poorly fitted or top-dose-only effect; inactive = no such curve, though single readings can be large or run the other way;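 further: % of control where 0% means no effect; miR-21 action dims this reporter so a rising signal means less miR-21 action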
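HeLa cells stably expressing CMV-driven firefly luciferase with a downstream miR-21 binding sequence, endogenously expressing miR-21, were treated with titrations (up to about 40uM final) for 48 hours at 37 degree Celsius. Luciferase luminescence was read after lysis.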
Nrf2 ARE act = activates Nrf2 signaling | AREc32 ARE-luciferase reporter (MCF7-derived line), luminescence, 24 h | Potency, µM (top dose mostly 46.1 µM), without a hit: at the highest dose activation, hits mostly activators | 410,000 compounds, 0.31% hits; also: potency is read from the fitted curve at half-maximal effect; % of control where 0% means no effect; nearly all actives have a fitted effect of over 65% in size
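Cells of the AREc32 ARE-luciferase line are plated in OPTI-MEM containing 5% FBS and left overnight at 37 deg C. Compounds are pinned in, incubation continues 24 hr, and firefly luciferase signal is then measured.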
The depositor's hits bear a star; ? = inconclusive; . = not tested or not shown. This is a sample that favours compounds with a hit; in the whole collection about 3.7% have one here. Unless noted, calls follow the shape of the dose curve; as a rule, active = well fitted curve in the direction sought with a large enough effect; inconclusive = small, poorly fitted or top-dose-only effect, or another doubt; inactive = no such curve, though single readings can be large; an effect the other way counts as inactive or inconclusive.

By UniProt entry, the sequences of proteins in these tests, tags left out.
ATP-dependent Clp protease proteolytic subunit (Bacillus subtilis (strain 168)), P80244, UniProt P80244, whole entry, looked up: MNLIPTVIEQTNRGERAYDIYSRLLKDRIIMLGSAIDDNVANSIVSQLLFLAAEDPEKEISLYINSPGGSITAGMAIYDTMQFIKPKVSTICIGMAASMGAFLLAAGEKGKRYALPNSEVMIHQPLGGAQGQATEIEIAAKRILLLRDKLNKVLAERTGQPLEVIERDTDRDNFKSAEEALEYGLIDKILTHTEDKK

no.	Molecule	miR-21 reporter	Nrf2 block	p53 reactivator
1	CCCCCn1cc2c(c1-c1ccccc1Br)c(=O)n(C)c(=O)n2C	-1.2%	-18.5%	.
2	c1ccc2nccnc2c1	.	.	.
3	O=C(c1ccco1)N(Cc1cccnc1)c1nc2ccc(F)cc2s1	-0.7%	.	.
4	O=C1CCc2cc(S(=O)(=O)Nc3cccc(-c4ccccc4)c3)ccc2N1	.	?	.
5	CCOc1ccc(S(=O)(=O)NCCc2csc(-c3ccc(Cl)cc3)n2)cc1	17.4%	.	.
6	CCC(=O)N1CCc2cc(S(=O)(=O)NC(Cc3ccccc3)C(=O)Nc3cccc(OC)c3)ccc21 (stereo not given)	-2.9%	-26.5%	.
7	CC1CCCCC12NC(=O)N(CC(=O)N1CCN(Cc3ccc(C#N)cc3)CC1)C2=O (stereo not given)	.	5.8µM*	0.0%
8	Cc1cccc(C)c1NC(=O)CN1CCN(C(=O)CN2C(=O)NC3(CCCCC3C)C2=O)CC1 (stereo not given)	.	-18.5%	-3.3%
9	Cc1ccccc1Nc1nnc(SCC(=O)Nc2ccccc2[N+](=O)[O-])s1	-44.6%	1.0%	?
10	C=CCc1c(C)nc2c(OC)cccc2c1Cl	-27.8%	5.7%	9.6%

no.	A549 tox	Nrf2 ARE act	ClpP mod
1	-12.4%	5.7%	-2.6%
2	.	.	-23.4%
3	13.1%	4.2%	-4.3%
4	-5.3%	.	.
5	3.0%	1.5%	-8.8%
6	1.3%	-1.3%	2.7%
7	0.0%	0.2%	0.2%
8	16.6%	0.3%	.
9	-5.1%	3.7%	31.6µM*
10	-0.2%	?	-0.7%

(next part)
no.	Molecule	miR-21 reporter	Nrf2 block	p53 reactivator
11	COc1cccc2c(Cl)c(CC=C(Cl)Cl)c(C)nc12	-2.3%	?	3.0%
12	COc1cc2c(NC3CCN(C)CC3)nc(N3CCCCC3)nc2cc1OCCCN(C)C	.	.	.
13	COc1cc(OC)c(NC(=O)c2sc3nc4n(c(=O)c3c2C)CCCC4)cc1Cl	-20.9%	-13.3%	.
14	CCN1CCc2c(C#N)c(N3CCOCC3)nc(NCCO)c2C1	-12.1%	7.2%	-1.3%
15	CCN1CCc2c(C#N)c(N3CCOCC3)nc(NCc3ccccc3)c2C1	-8.9%	9.0%	2.5%
16	C=CCNc1nc(N2CCCCC2)c(C#N)c2c1CN(Cc1ccccc1)CC2	-6.4%	-2.3%	?
17	CCN1CCc2c(C#N)c(N3CCCCC3)nc(NCc3ccccc3)c2C1	4.5%	?	.
18	N#Cc1c(NCCO)nc(NCc2ccccc2)c2c1CCN(Cc1ccccc1)C2	-18.4%	9.9%	24.6%
19	COc1cc(OC)c2c(C)c(CC(=O)NCCc3ccccc3OC)c(=O)oc2c1	-4.6%	-2.5%	.
20	CCn1ccc2c(OCC(=O)Nc3ccc(C(C)=O)cc3)cccc2c1=O	6.7%	.	.

no.	A549 tox	Nrf2 ARE act	ClpP mod
11	5.0%	2.7%	10µM*
12	.	.	4.4%
13	?	0.0%	-1.8%
14	13.1%	2.5%	8.91µM*
15	0.8%	0.5%	2.3%
16	0.1%	0.1%	28.2µM*
17	-1.7%	10.6%	?
18	-3.3%	9.5%	10µM*
19	1.2%	0.0%	0.4%
20	-3.1%	0.2%	-9.5%

Carrying on.
no.	Molecule	miR-21 reporter	Nrf2 block	p53 reactivator
21	COc1ccc(CCNCc2c(C(=O)O)c(C)n(Cc3ccccc3C)c2C)c(OC)c1	-2.9%	-10.0%	.
22	S=c1[nH]nc(Cc2cccs2)n1-c1ccccc1Cl	0.3%	16.4µM*	-0.3%
23	S=c1[nH]nc(Cc2cccs2)n1-c1cccc2ccccc12	-0.2%	6.9%	-1.0%
24	Cc1c(P(=S)(c2ccccc2)c2ccccc2)c2ccccc2n1C(=O)NCc1ccc(F)cc1	.	?	.
25	O=C(c1nc2ccccn2c1CN1CCCC(O)C1)N1CCN(C2CCCCC2)CC1 (stereo not given)	-3.5%	2.1%	?
26	NC(=O)[C@@H]1CCCN1Cc1c(C(=O)N2CCN(C3CCCCC3)CC2)nc2ccccn12	-4.1%	6.6%	-4.1%
27	CCOc1ccc(CNS(=O)(=O)c2cc3c(cc2C)NC(=O)CO3)cc1	3.2%	.	.
28	CCOC(=O)N1CCc2c(sc(NCc3cccc(F)c3)c2C(=O)Nc2ccc(OCC)cc2)C1	4.4%	.	.
29	COc1ccc(C2=NN(S(C)(=O)=O)C(c3cn(-c4ccccc4)nc3-c3cccs3)C2)cc1 (stereo not given)	-13.7%	-6.3%	.
30	CN(C)S(=O)(=O)c1ccc(C(=O)Nc2nnc(Cc3ccccc3)s2)cc1	-2.8%	.	0.7%

no.	A549 tox	Nrf2 ARE act	ClpP mod
21	1.3%	-0.2%	0.3%
22	5.9%	-1.2%	.
23	1.4%	0.4%	-0.8%
24	2.8%	.	.
25	-15.7%	0.0%	-18.6%
26	14.6%	3.9%	17.8µM*
27	-2.1%	-1.0%	-4.3%
28	-0.1%	8.8%	-4.6%
29	-10.7%	4.0%	14.1µM*
30	12.0%	0.1%	22.4µM*

Taken from above:
Under Nrf2 ARE act, `C=CCNc1nc(N2CCCCC2)c(C#N)c2c1CN(Cc1ccccc1)CC2` has 0.1%
Under A549 tox, `O=C(c1nc2ccccn2c1CN1CCCC(O)C1)N1CCN(C2CCCCC2)CC1` (stereo not given) has -15.7%

New compounds follow
no.	Molecule	miR-21 reporter	Nrf2 block	p53 reactivator
31	CCN1CCN(S(=O)(=O)c2ccc(Cl)c(C(=O)NC(C)c3ccccc3Cl)c2)CC1 (stereo not given)	.	-2.9%	-1.9%
32	CC(C)n1c(O)c(N=NC(=O)CNC(=O)Cc2ccc(Cl)cc2)c2ccccc21	-5.7%	-20.0%	-5.1%
33	COc1ccccc1C(=O)NCC(=O)N=Nc1c(O)n(C(C)C)c2ccccc12	-19.1%	23.1µM*	1.0%
34	Cc1ccc(S(=O)(=O)/N=C2/C=C(Sc3ncn[nH]3)C(=O)c3ccccc32)cc1	?	?	-25.1%
35	CC(C)c1ccc(S(=O)(=O)/N=C2/C=C(Sc3ncn[nH]3)C(=O)c3ccccc32)cc1	?	18.4µM*	-53.4%
36	CCOC(=O)CSc1nc2sc3c(c2c(=O)n1-c1ccc(OC)cc1)CC(C(C)C)OC3 (stereo not given)	-2.0%	7.0%	.
37	COc1ccc(Br)cc1C(=O)Nc1ccc(N2CCN(S(C)(=O)=O)CC2)cc1	1.5%	18.4µM*	-4.8%
38	Cc1ccc(N(C)S(=O)(=O)c2cccc(C(=O)Nc3ccc(N4CCOCC4)cc3)c2)cc1	.	?	-8.3%
39	Cc1ccc(C(=O)Nc2ccc(F)cc2)cc1S(=O)(=O)N1CCOCC1	2.1%	.	.
40	O=C(Nc1ccc(N2CCCCCC2)cc1)c1cccc(S(=O)(=O)N2CCOCC2)c1	.	16.4µM*	?

no.	A549 tox	Nrf2 ARE act	ClpP mod
31	5.5%	-0.4%	35.5µM*
32	-6.4%	0.1%	1.3%
33	-15.2%	-0.4%	0.1%
34	?	-3.4%	16.2%
35	?	-3.2%	-6.1%
36	-3.8%	-0.1%	0.1%
37	-18.4%	2.5%	-11.9%
38	6.6%	2.3%	-3.5%
39	-6.6%	4.4%	-1.7%
40	-3.1%	0.2%	8.8%

Screen by screen, quoted from above.
Nrf2 block, entries 31 to 40, in order: -2.9%, -20.0%, 23.1µM*, ?, 18.4µM*, 7.0%, 18.4µM*, ?, ., 16.4µM*
p53 reactivator, entries 31 to 40, in order: -1.9%, -5.1%, 1.0%, -25.1%, -53.4%, ., -4.8%, -8.3%, ., ?
ClpP mod, entries 31 to 40, in order: 35.5µM*, 1.3%, 0.1%, 16.2%, -6.1%, 0.1%, -11.9%, -3.5%, -1.7%, 8.8%

Later entries:
no.	Molecule	miR-21 reporter	Nrf2 block	p53 reactivator
41	O=C(Nc1ccc(F)cc1)c1ccc(Br)c(S(=O)(=O)N2CCOCC2)c1	22.0%	14.6µM*	1.5%
42	COc1ccc(Br)cc1C(=O)Nc1ccc(N2CCCC2)cc1	-8.5%	?	45.1%
43	CN(c1ccccc1)S(=O)(=O)c1cccc(C(=O)Nc2ccc(N3CCOCC3)cc2)c1	.	14.6µM*	-9.1%
44	O=C(Nc1ccc(Br)cc1)c1cccc(OC(=S)N2CCOCC2)c1	20.2%	16.4µM*	-1.0%
45	CN1CCN(S(=O)(=O)c2cccc(C(=O)Nc3ccccc3N3CCCC3)c2)CC1	-3.4%	-13.0%	-6.8%

no.	A549 tox	Nrf2 ARE act	ClpP mod
41	-16.5%	3.3%	.
42	0.7%	13.9%	.
43	-3.5%	3.8%	-0.9%
44	-15.2%	3.2%	.
45	-8.2%	-0.7%	-0.9%
